Drawing on patent US10508104B2, “6-hydroxy-5-(phenyl/heteroarylsulfonyl)pyrimidin-4(1H)-one as APJ agonists” (Bristol-Myers Squibb Company, priority 2016, dated 2019), this text covers EC50 for one compound.

Protein sequences, listed by entry. Tags and fused reporters are not part of them.
UniProt P35414, whole entry: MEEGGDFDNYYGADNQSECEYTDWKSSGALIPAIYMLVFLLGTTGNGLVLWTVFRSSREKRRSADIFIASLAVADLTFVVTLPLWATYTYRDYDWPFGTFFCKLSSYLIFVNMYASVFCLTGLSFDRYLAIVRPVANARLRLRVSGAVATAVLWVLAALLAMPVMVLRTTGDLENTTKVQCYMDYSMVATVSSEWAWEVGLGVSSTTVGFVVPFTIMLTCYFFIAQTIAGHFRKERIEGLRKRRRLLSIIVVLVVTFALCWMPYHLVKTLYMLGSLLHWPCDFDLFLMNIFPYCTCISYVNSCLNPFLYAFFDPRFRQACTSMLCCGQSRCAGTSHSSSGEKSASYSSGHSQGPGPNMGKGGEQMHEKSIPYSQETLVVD

The target in this assay is human APJ receptor (Homo sapiens (Human), UniProt P35414). The assay is described as follows: Intracellular cAMP accumulation assay (APJ hcAMP, HTRF). Conditions: read-out: Human APJ cAMP EC50 Potency range; HEK293 cells stably expressing human APJ receptor; inhibition of forskolin-mediated cAMP production. In general terms: Cyclic AMP is a second messenger, typically raised through Gs and lowered through Gi signalling.

The EC50 is the concentration giving half of the maximal effect. In the case of `CCCCc1nc(=O)c(S(=O)(=O)c2ccc(-c3ccncc3C)cc2)c(O)n1[C@@H](CC)c1ccccc1F`, the EC50 is 0.01 to 10 nM.
